The text below walks through data of patent publication US20180221336A1, “DOSE SPARING KETOROLAC FORMULATIONS AND METHODS AND DEVICES FOR USE WITH SAME” (SteadyMed, Ltd., priority 2017, published 2018).

Several values for one entry are separate records, joined by “and”; a condition that tells them apart may be missing. Identical values can stand only once.

The conditions of this data set: Treatment B: four IM bolus injections of 30 mg every 6 hours.

Broadly, the CL/F is the apparent clearance, not corrected for the fraction that reaches the circulation. As to `O=C(c1ccccc1)c1ccc2n1CCC2C(=O)O` (racemic) [Ketorolac, (±)-5-benzoyl-2,3-dihydro-1H-pyrrolizine-1-carboxylic acid, compound with 2-amino-2-(hydroxymethyl)-1,3-propanediol], for the setting “0-6 hr, geom. mean (geom. CV %)”, the Gmax0-6 is reported as 2.039 (17.9) μg/mL. The Gmax6-12 (6-12 hr, geom. mean (geom. CV %)) is 1.952 (21.4) μg/mL. Besides, the Cmax12-18 (12-18 hr, geom. mean (geom. CV %)) is 1.955 (26.4) μg/mL. Besides, the Cmax18-24 (18-24 hr, geom. mean (geom. CV %)) is 2.049 (19.3) μg/mL. Moreover, the Cavg (AUCtau/6 hours, geom. mean (geom. CV %)) is listed as 1.136 (27.1) μg/mL. In addition, the AUC0-last (N = 12, geom. mean (geom. CV %)) is 27.83 (29.8) μg * hr/mL. The molecule further yielded a Kel (mean ± SD) of 0.1029 ± 0.02289 h⁻¹. Moreover, the apparent clearance CL/F (mean ± SD, listed as Ketorolac tromethamine) is 3.083 ± 0.08957 L/h and 3.083 ± 0.8957 L/h. Also, under “median (minimum, maximum)”, the tmax0-6 is 0.5000 (0.249, 1.25) hr; the tmax6-12 was 6.250 (6.25, 6.75) hr; the tmax12-18 is 12.25 (12.2, 13.0) hr; the tmax18-24 is given as 18.50 (18.3, 19.0) hr. In addition, the “Cmax—all” value (whole sampling interval, N = 12, geom. mean (geom. CV %)) is 2.240 (17.6) μg/mL.
